# Patent US7465549B2, “Methods for identifying agents that bind a levetiracetam binding site (LBS) or compete with LEV binding to a LBS of a synaptic vesicle protein 2 (SV2)” (UCB, S.A., priority 2002, dated 2008)
# Chains of the proteins cited; added tags and fusions are not shown.
# UniProt Q02563, whole entry: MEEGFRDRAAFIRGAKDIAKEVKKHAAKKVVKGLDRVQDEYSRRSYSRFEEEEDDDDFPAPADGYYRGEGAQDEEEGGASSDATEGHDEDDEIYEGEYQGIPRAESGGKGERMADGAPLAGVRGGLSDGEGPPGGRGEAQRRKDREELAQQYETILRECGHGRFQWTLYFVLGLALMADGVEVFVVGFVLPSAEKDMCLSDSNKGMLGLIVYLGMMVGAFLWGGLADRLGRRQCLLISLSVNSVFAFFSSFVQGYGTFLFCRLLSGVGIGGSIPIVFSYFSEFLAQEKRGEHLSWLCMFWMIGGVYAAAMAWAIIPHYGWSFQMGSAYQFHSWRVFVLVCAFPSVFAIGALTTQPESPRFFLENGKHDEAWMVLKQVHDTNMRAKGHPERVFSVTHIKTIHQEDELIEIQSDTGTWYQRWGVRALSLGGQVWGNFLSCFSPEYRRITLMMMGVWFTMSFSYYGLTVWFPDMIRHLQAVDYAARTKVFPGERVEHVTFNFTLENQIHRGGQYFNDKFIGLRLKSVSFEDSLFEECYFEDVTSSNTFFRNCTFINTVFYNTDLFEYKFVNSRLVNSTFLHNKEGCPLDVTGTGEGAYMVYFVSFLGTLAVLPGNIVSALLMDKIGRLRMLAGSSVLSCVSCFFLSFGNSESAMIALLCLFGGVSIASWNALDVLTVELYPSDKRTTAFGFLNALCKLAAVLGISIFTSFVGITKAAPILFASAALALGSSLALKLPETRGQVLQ
# Columns and labels:
# [1] = target: T1, levetiracetam binding site (LBS) (Rattus norvegicus, UniProt Q02563); conditions: cited from earlier work
# T1 construct: host or cells: crude rat brain membranes (Noyer et al. 1995; Gillard et al. 2003)
# [2] = target: T1, levetiracetam binding site (LBS); test: [3H]ucb 30889 binding on crude rat brain membranes (kinetics, saturation, competition)
# Experimental: This example describes the binding properties of [^3H]ucb 30889, (2S)-2-[4-(3-azidophenyl)-2-oxopyrrolidin-1-yl]butanamide, an analogue of levetiracetam. Binding experiments were conducted on crude rat brain membranes at 4° C. as described in Noyer et al. (Euro. J. Pharmacol. 286: 137-146 (1995)). Incubation time for equilibrium studies was 120 min. For kinetic and competition studies, [^3H]ucb 30889 (30 Ci/mmol) was used at a concentration of 1.3 nM in 0.5 ml of a Tris-HCl (pH 7.4) buffer containing 2 mM Mg^2+. Localization of the LBS in brain substructures was assessed by autoradiography on 25 μm thick slices incubated under similar conditions. Slides were then washed twice for 10 min at 4° C. in 50 mM Tris-HCl (pH 7.4) containing 0.5% BSA, dried and exposed for 3 weeks to [^3H]Hyperfilm at −20° C. Non-specific binding (NSB) was determined by the inclusion of 1 mM LEV during the incubation period.
# soluble SV2A = target: T2, soluble SV2A (Rattus norvegicus, UniProt Q02563); test: binding to soluble SV2A (n-dodecyl-β-D-maltoside solubilized rat brain membranes)
# T2 construct: the soluble protein maintains its native structural conformation in n-dodecyl-β-D-maltoside; from tissue; host or cells: rat brain membranes, detergent supernatant (100,000 g)
# Experimental: The rat brain membranes were diluted in a solubilization buffer (Tris-HCl 20 mM pH 7.4, 0.25 M sucrose, protease inhibitors Complete Roche) containing n-dodecyl-β-D-maltoside 15 mM and incubated for two hours at 4° C. Subsequently, the solution was centrifuged at 4° C. for one hour at 100,000 g. The soluble SV2A was found in the supernatant as detected by western blot using anti-SV2A antibodies (FIG. 21A). The supernatants were incubated with [^3H]ucb 30889 as described. […] In order to detect the specificity of the SV2A binding, the ability of levetiracetam and ucb 30889 to specifically bind to the soluble SV2A was examined. […] Thus, the binding properties of the soluble SV2A are similar to the membrane-bound native form indicative that the soluble protein maintains its native structural conformation in n-dodecyl-β-D-maltoside.
SMILES,affinity for LBS relative to levetiracetam [1],Bmax [2] [fmol/mg protein],affinity for soluble SV2A compared with native membrane (soluble SV2A)
CC[C@@H](C(N)=O)N1CCCC1=O [ucb L060],about 1000 times,,
"CC[C@@H](C(N)=O)N1CCCC1=O [levetiracetam, (S)-α-ethyl-2-oxo-1-pyrrolidine acetamide]",,4718±413,equivalent to that exhibited by ligands to the native membrane
